The target of this test is RIG-I(N) (no GST tag) (human). Briefly: AUC.

K63-Ub5 (from UniProt P0CG48 1-76): the stoichiometry N (RIG-I(N) per Ub chain (printed as 4:4)) is 1. Still for that read-out and setting: next, K63-Ub4 (from UniProt P0CG48 1-76): 1.

The substance K63-Ub3 (from UniProt P0CG48 1-76) gave a stoichiometry N (RIG-I(N) per Ub3) of 1.

The values are drawn from article PMC3412146.
